Molecular target: E-selectin (Homo sapiens, UniProt P16581)
Assay: E-selectin competitive binding assay (sLe^a polyacrylamide conjugate vs immobilized E-selectin/Ig chimera)
Details: read-out: IC50 (E-Selectin Antagonist Activity)
Text: An inhibition assay may be used to screen for antagonists of E-selectin. For example, an assay may be performed to characterize the capability of a compound or other agent described herein to inhibit (i.e., reduce, block, decrease, or prevent in a statistically or biologically significant manner) interaction of E-selectin with sLe^a or sLe^x. The inhibition assay may be a competitive binding assay, which allows the determination of IC50 values. […] Variations of such steps can be readily and routinely accomplished by a person of ordinary skill in the art. […]
To determine the amount of sLe^a bound to immobilized E-selectin after washing, the peroxidase substrate, 3,3′,5,5′ tetramethylbenzidine (TMB) was added. After 3 minutes, the enzyme reaction was stopped by the addition of H3PO4, and the absorbance of light at a wavelength of 450 nm was determined.

The chains behind the UniProt entries cited, without tags or fusion partners. Residues count along the entry.
UniProt P16581, 22-175 limits assumed: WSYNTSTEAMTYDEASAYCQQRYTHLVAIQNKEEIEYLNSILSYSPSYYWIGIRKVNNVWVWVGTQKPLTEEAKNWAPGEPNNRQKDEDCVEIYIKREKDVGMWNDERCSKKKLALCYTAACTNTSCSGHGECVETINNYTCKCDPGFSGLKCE

In the case of `CCC1CC(C(=O)NCCNC(=O)CCOCCOCCOCCOCCOCCOCCOCCOCCOCCOCCOCCOC)CC(OC2OC(CO)C(O)C(OC(CC3CCCCC3)C(=O)N(C)C)C2NC(C)=O)C1OC1OC(C)C(O)C(O)C1O` (stereo not shown), the IC50 is reported as < 4 µM.

— patent US11332491B2, “E-selectin antagonist compounds, compositions, and methods of use” (GLYCOMIMETICS, INC., priority 2011, dated 2022)
